This assay concerns the target E-cadherin (human (endogenous in human LNCaP cells)) (UniProt P12830). The assay can be described thus: cell-based or functional assay.

Turning to “MT1-MMP-GFP chimera (MT1-GFP) (from UniProt P50281 112-582)”, the shed E-cadherin in the conditioned medium worked out at 5 fold.

Source of the values: patent US20130123192A1.
